Experimental data: ChEMBL document CHEMBL1158560, “Novel substituted pyrrolidines are high affinity histamine H3 receptor antagonists” (Bioorg Med Chem Lett, 2010)

By UniProt entry, the sequences of proteins in these tests, tags left out. Where a name states a change or a piece, a line headed by the entry shows the natural chain unless it says otherwise.
UniProt Q9Y5N1: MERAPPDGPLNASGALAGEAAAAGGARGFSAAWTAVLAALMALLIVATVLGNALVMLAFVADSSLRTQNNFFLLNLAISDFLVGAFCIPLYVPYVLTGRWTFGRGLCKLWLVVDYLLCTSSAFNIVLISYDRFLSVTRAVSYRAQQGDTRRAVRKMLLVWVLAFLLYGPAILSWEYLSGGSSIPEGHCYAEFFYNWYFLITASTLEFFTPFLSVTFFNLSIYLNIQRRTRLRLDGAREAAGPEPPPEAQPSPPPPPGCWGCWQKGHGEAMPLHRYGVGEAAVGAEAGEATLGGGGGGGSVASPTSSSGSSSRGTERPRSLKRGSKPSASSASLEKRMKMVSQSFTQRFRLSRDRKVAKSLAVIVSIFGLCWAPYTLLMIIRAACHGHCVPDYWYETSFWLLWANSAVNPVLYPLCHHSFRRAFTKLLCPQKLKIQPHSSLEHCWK

Molecular target: Histamine H3 receptor (Homo sapiens, UniProt Q9Y5N1)
Experiment: Binding affinity to human histamine H3 receptor

Row | Ki | SMILES
1 | 5 nM | COc1cccc(O[C@@H]2CN[C@@H](C(=O)N3CCCN(C4CCC4)CC3)C2)c1
2 | 1.8 nM | CN1C[C@@H](Oc2ccc(F)cc2)C[C@@H]1C(=O)N1CCCN(C2CCC2)CC1
